# Apparent affinities of Ab-95 variants for a coronavirus HR2 peptide

Target peptide (SARS-CoV-2 spike, HR2 region): PDVDLGDISGINAS

Parent: Ab-95, a human scFv built as VH, three GGGGS repeats, VL. Only the CDRs of the light chain vary.
VH: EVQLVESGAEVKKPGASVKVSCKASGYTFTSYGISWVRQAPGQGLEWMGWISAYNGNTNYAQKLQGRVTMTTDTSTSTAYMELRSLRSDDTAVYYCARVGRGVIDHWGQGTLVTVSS
VL: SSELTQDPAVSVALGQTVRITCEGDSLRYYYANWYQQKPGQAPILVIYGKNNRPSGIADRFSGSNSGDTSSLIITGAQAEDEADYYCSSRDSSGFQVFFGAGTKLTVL

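The starting antibody came from a phage panning campaign against this peptide. AAYL52 was designed without a model: most single CDR substitutions and a random sample of double and triple ones. In AlphaSeq, yeast of one mating type display the scFv and yeast of the other type display the target. Mating (16 h, 30 °C) was followed by selection of diploids and sequencing of their barcodes. Read counts were normalised to the haploid input and turned into Kd by a linear fit to BCL2-family pairs of known affinity, for each replicate. Each pool was mated in three replicate cultures.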

Each variant's VL is given in full.
All variants listed here change S89 of the VL, counted from its first residue.
Kd is apparent (estimated from mating counts) and averaged on the log scale over replicates with a signal. Smaller is tighter.
"no signal" means that the variant was in the library but no mating with the target was seen in any replicate; the authors take this as a sign of poor binding, and no number exists.
As a blank, each scFv also met three strains without target: over library AAYL52, 28% of these pairings were detected, typically at 8.2 µM and seldom below 800 nM.
For reference, the parent read 200 nM as the reference entry and 180 nM as a member of this library.

VL	Kd (apparent)	replicates with signal
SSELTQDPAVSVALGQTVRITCEGDSLRYYYANWYQQKPGQAPILVIYGKQNRPSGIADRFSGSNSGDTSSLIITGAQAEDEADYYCSYRDSSGFQVFFGAGTKLTVL	190 nM	3 of 3
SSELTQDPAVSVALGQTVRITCQGDSLEYYYANWYQQKPGQAPILVIYGKNNRPSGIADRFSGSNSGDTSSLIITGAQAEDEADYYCSARDSSGFQVFFGAGTKLTVL	50 nM	3 of 3
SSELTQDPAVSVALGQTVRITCEGDSLRYYNANWYQQKPGQAPILVIYGKNNRPSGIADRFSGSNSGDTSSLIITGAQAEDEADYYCSCSDSSGFQVFFGAGTKLTVL	20 nM	3 of 3
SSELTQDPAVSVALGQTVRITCEGDSLRYYYANWYQQKPGQAPILVIYNKNNRPSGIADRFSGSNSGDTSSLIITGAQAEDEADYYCSRRDSSGFQDFFGAGTKLTVL	300 nM	3 of 3
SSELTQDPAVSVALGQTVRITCEGDSLRYYYANWYQQKPGQAPILVIYGKNNRPMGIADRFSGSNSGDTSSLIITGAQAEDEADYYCSNIDSSGFQVFFGAGTKLTVL	560 nM	3 of 3
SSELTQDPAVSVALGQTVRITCEGDSLRYDYAKWYQQKPGQAPILVIYGKNNRPSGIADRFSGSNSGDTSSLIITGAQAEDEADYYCSMRDSSGFQVFFGAGTKLTVL	56 nM	3 of 3
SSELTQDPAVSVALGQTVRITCEGNSLRYYYANWYQQKPGQAPILVIYGKNNRPSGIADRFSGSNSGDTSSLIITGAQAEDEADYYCSRRDSSGFQMFFGAGTKLTVL	690 nM	2 of 3
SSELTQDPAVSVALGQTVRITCEGDSLRYYYANWYQQKPGQAPILVIYGKNNVPSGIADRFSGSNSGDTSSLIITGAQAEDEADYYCENRDSSGFQVFFGAGTKLTVL	4.1 µM	2 of 3
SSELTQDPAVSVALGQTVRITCEGDSLRYYYANWYQQKPGQAPILVIYGKNNRPSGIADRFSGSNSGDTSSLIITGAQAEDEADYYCSVSDSSGFQGFFGAGTKLTVL	1.3 µM	2 of 3
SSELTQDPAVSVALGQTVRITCEGDILRYYYANWYQQKPGQAPILVIYGKNNRYSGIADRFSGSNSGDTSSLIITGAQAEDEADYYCSTRDSSGFQVFFGAGTKLTVL	no signal	0 of 3
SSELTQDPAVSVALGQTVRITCEEDSLRYYQANWYQQKPGQAPILVIYGKNNRPSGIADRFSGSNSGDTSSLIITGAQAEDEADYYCSQRDSSGFQVFFGAGTKLTVL	9.3 µM	1 of 3
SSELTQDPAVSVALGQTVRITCEGDSLRYYYENWYQQKPGQAPILVIYGKNNRPSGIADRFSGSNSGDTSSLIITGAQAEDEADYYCSIRDSSGDQVFFGAGTKLTVL	13 µM	2 of 3
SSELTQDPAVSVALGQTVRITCEGDSLRYYYANWYQQKPGQAPILVIYGKNNRPSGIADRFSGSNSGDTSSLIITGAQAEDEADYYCSLRDSGGDQVFFGAGTKLTVL	no signal	0 of 3
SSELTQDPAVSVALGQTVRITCTGDSLRYYYANWYQQKPGQAPILVIYGKNNRPSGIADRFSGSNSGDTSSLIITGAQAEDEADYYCSKRESSGFQVFFGAGTKLTVL	820 nM	3 of 3
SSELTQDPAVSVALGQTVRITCEGDSLRYYLANWYQQKPGQAPILVIYGKNNRPSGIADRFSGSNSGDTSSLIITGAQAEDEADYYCVWRDSSGFQVFFGAGTKLTVL	1.0 µM	3 of 3
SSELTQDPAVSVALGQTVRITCEADSLRYYYANWYQQKPGQAPILVIYGKNNRPSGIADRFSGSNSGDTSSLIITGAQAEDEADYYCSDNDSSGFQVFFGAGTKLTVL	5.5 µM	3 of 3

Values reported by Engelhart et al. 2022, doi:10.1038/s41597-022-01779-4 (FLAb copy).